In one test the test system is Jurkat cells. Briefly: Inhibition of proliferation of Jurkat cells (CellTiter-Glo, 72 hour). The following applies: read-out: Jurkat IC50, 10 μM to 316 pM.
For the next test, the target named is CDK7 (Homo sapiens, UniProt P50613). Put plainly: CDK7 kinase activity, Adapta kinase assay (Life Technologies). The following applies: read-out: CDK7 Inhibition (IC50); Adapta kinase assay at Life Technologies; 10 μM down to 0.514 nM, 3-fold serial dilutions.
Another test deals with A673 cells. Put plainly: Inhibition of proliferation of A673 cells (CyQUANT, 72 hour). The following applies: read-out: A673 IC50, 72 hour proliferation. An outline of the steps:
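Human Ewing's sarcoma A673 cells in DMEM + 10% FBS + 1 mM sodium pyruvate, 37 °C, 5% CO2, exposed to compounds from 4 μM to 126.4 pM (0.5 log dilutions) for 72 h. Proliferation read by CyQUANT; IC50 reported as binned categories.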

Amino acid sequences for entries named in this document (tags omitted).
UniProt P50613, whole entry: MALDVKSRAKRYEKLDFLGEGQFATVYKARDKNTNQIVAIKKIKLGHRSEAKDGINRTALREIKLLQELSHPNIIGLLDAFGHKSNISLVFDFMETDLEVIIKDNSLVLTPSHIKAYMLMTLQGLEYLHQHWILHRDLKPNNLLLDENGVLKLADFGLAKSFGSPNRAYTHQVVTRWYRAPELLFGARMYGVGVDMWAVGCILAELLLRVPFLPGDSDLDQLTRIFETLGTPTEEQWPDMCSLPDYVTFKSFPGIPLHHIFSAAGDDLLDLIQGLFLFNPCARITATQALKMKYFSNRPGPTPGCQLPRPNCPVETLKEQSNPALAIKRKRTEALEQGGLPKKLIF
UniProt P51946, whole entry partner: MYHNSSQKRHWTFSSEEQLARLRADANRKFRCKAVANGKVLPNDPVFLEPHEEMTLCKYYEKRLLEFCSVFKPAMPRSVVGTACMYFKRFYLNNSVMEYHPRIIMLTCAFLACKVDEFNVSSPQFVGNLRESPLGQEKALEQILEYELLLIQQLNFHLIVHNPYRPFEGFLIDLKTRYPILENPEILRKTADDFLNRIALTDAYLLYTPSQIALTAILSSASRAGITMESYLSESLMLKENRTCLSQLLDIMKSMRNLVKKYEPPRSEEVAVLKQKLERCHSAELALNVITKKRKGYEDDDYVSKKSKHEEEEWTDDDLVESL
UniProt P51948, whole entry partner: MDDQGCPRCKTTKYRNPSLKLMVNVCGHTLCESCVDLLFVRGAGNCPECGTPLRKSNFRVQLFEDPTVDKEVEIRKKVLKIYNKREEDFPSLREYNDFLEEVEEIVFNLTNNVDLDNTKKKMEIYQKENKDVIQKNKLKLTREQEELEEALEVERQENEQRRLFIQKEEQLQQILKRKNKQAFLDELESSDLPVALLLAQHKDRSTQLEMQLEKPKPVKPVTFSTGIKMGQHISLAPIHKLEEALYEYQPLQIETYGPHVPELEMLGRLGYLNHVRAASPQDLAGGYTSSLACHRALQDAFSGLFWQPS

Test [1] deals with CDK7/Cyclin H/MAT1 trimeric complex (Homo sapiens, UniProt P50613). Put plainly: CDK7 kinase assay, Caliper/LabChip EZ Reader (Biortus Biosciences). The following applies: read-out: CDK7 Inhibition (IC50), CDK7/Cyclin H/MAT1 10 nM, ATP 2 mM, FAM-CDK7tide 2 μM, 30 min incubation.

The text below walks through data of patent US10106526B2, “Inhibitors of cyclin-dependent kinase 7 (CDK7)” (SYROS PHARMACEUTICALS, INC., priority 2014, dated 2018).

Molecules are shown by their SMILES.

`CN(C)C/C=C/C(=O)NCc1nc(C(=O)N[C@H]2CCC[C@@H](Nc3ncc(Cl)c(-c4c[nH]c5ccccc45)n3)C2)cs1`: the IC50 with Jurkat cells is less than 500 nM; at CDK7, less than 100 nM; in the test on A673 cells it was less than 500 nM; in test [1], less than 100 nM.
On to `C=CC(=O)N1CCN([C@H]2CCC[C@@H](Nc3ncc(Cl)c(Nc4ccccc4S(=O)(=O)C(C)C)n3)C2)CC1`, for which the IC50 in the test with Jurkat cells is less than 500 nM; on CDK7, less than 100 nM; in the test on A673 cells, less than 500 nM; in test [1], less than 100 nM.
Turning to `O=C(/C=C/CN1CCOCC1)N1CCC(C(=O)N2CCC(Nc3ncc(Cl)c(-c4c[nH]c5ccccc45)n3)CC2)CC1`, the IC50 in the test with Jurkat cells was 500 to 5000 nM; at CDK7, less than 100 nM; in test [1] it was less than 100 nM.
With `CN(C)C/C=C/C(=O)N1CC(C)(C(=O)N[C@H]2CCC[C@@H](Nc3ncc(Cl)c(-c4c[nH]c5ccccc45)n3)C2)C1`, the IC50 in the test with Jurkat cells was less than 500 nM; on CDK7 it was less than 100 nM; with A673 cells it was less than 500 nM; in test [1] it was less than 100 nM.
`C=CC(=O)N1CCN(CC2(F)CCC(Nc3ncc(Cl)c(-c4c[nH]c5ccccc45)n3)CC2)CC1` (stereo not drawn): the IC50 with Jurkat cells is 500 to 5000 nM; at CDK7, less than 100 nM; in test [1] it was less than 100 nM.
As for `C=CC(=O)N1CCC(C(=O)N[C@H]2CCC[C@@H](Nc3ncc(Cl)c(-c4cnn5ccccc45)n3)C2)CC1`, the IC50 was 500 to 5000 nM with Jurkat cells, less than 100 nM on CDK7, less than 500 nM in the test with A673 cells and less than 100 nM in test [1].
Turning to `C=CC(=O)NC1CCN(C2CCC[C@@H](Nc3ncc(Cl)c(-c4c[nH]c5ccccc45)n3)C2)CC1` (stereo partly drawn), the IC50 in the test on Jurkat cells was 500 to 5000 nM; on CDK7, less than 100 nM; with A673 cells, less than 500 nM; in test [1], less than 100 nM.
Take `O=C(/C=C/CN1CCOCC1)N1CCN([C@H]2CCC[C@@H](Nc3ncc(Cl)c(-c4c[nH]c5ccccc45)n3)C2)CC1`: the IC50 in the test with Jurkat cells is less than 500 nM; at CDK7, less than 100 nM; in the test with A673 cells it was less than 500 nM; in test [1] it was less than 100 nM.
In the case of `O=C(N[C@H]1CCC[C@@H](Nc2ncc(Cl)c(-c3cnn4ccccc34)n2)C1)C1CCN(C(=O)/C=C/CN2CCOCC2)CC1`, the IC50 with Jurkat cells was 500 to 5000 nM; on CDK7, less than 100 nM; in test [1], less than 100 nM.
On to `C=CC(=O)N1CCC(C(=O)N2CCC(Nc3ncc(Cl)c(-c4c[nH]c5ccccc45)n3)CC2)CC1`, for which the IC50 in the test on Jurkat cells was less than 500 nM; on CDK7, less than 100 nM; in test [1], less than 100 nM.
Consider `C=CC(=O)Nc1ccc(C(=O)N[C@H]2CCC[C@@H](Nc3ncc(Cl)c(-c4c[nH]c5ccccc45)n3)C2)nc1`, for which the IC50 in the test on Jurkat cells is less than 500 nM; at CDK7, less than 100 nM; in the test with A673 cells, less than 500 nM; in test [1], less than 100 nM.
`CN(C)C/C=C/C(=O)NC1CCN(C2CCC[C@@H](Nc3ncc(Cl)c(-c4c[nH]c5ccccc45)n3)C2)CC1` (stereo partly drawn): the IC50 with Jurkat cells was less than 500 nM; on CDK7 it was less than 100 nM; in the test on A673 cells, less than 500 nM; in test [1] it was less than 100 nM.
Regarding `C=CC(=O)NCc1nc(C(=O)N[C@H]2CCC[C@@H](Nc3ncc(Cl)c(-c4c[nH]c5ccccc45)n3)C2)cs1`, the IC50 with Jurkat cells was less than 500 nM; at CDK7, less than 100 nM; in the test with A673 cells it was less than 500 nM; in test [1], less than 100 nM.
Turning to `C=CC(=O)N1CC(C)(C(=O)N[C@H]2CCC[C@@H](Nc3ncc(Cl)c(-c4c[nH]c5ccccc45)n3)C2)C1`, the IC50 is less than 500 nM in the test on Jurkat cells, less than 100 nM on CDK7, less than 500 nM with A673 cells and less than 100 nM in test [1].
For `CN(C)C/C=C/C(=O)N1CCC(C(=O)N[C@H]2CCC[C@@H](Nc3ncc(Cl)c(-c4cnn5ccccc45)n3)C2)CC1`, the IC50 was 500 to 5000 nM with Jurkat cells, less than 100 nM on CDK7, less than 500 nM in the test with A673 cells and less than 100 nM in test [1].
For `O=C(/C=C/CN1CCOCC1)N1CCC(C(=O)N2CC[C@@H](Nc3ncc(Cl)c(-c4c[nH]c5ccccc45)n3)C2)CC1`, the IC50 in the test on Jurkat cells is 500 to 5000 nM; at CDK7, 100 to 1000 nM; in test [1] it was less than 100 nM.
Consider `C=CC(=O)N1CCC(N(C)[C@H]2CCC[C@@H](Nc3ncc(Cl)c(-c4c[nH]c5ccccc45)n3)C2)CC1`, for which the IC50 in the test on Jurkat cells was less than 500 nM; at CDK7 it was less than 100 nM; in the test on A673 cells it was less than 500 nM; in test [1], less than 100 nM.
